Assay results from US20210008201A1, “ANTIBODIES FOR EPIDERMAL GROWTH FACTOR RECEPTOR 3 (HER3)” (NOVARTIS AG, priority 2011, published 2021).

Tested on: A253 SCCHN model
Assay: In vivo A253 xenograft
Set-up: species or system nude mice
Conditions: single agent
Experimental: A253 cells were cultured in DMEM containing 10% heat-inactivated fetal bovine serum without antibiotics until the time of implantation. A253 cells were harvested in exponential growth. Five million cells in 200 μl PBS were subcutaneously implanted into the upper right flank of nude mice. On Day 25, tumors were measured and animals with a tumor volume of approximately 200 mm^3 were enrolled in the efficacy study. In general, a total of 9 animals per group were enrolled in efficacy studies. For single-agent and combination studies, animals were dosed intravenously via lateral tail vein injection with MOR10703 or cetuximab.

cetuximab: HER1 (EGFR) inhibitor, Erbitux/Cetuximab (Imclone) [reference compound]
tumor growth: tumor stasis
